Ab-14 heavy chain CDR variants: yeast mating affinities

Values reported by Li et al. 2023, doi:10.1038/s41467-023-39022-2 (FLAb copy).

Antigen: PDVDLGDISGINAS, a 14-residue peptide of the SARS-CoV-2 spike HR2 region.

Ab-14 is the parent antibody, in scFv form: VH, then a (GGGGS)3 linker, then VL. The light chain is unchanged in all variants.
VH: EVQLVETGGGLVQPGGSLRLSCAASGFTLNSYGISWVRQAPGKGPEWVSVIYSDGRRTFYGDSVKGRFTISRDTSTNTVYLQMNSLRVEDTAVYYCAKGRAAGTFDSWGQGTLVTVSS
VL: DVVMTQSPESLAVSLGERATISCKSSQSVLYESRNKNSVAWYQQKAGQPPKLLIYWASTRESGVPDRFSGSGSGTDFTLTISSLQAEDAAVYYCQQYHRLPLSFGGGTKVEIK

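The parent was found by panning a naive human phage display library on the peptide. Designed CDR sequences, proposed from the first random library and measured here. Their group label is 14H_En_Gen (En: ensemble of fine-tuned language models; Gen: genetic algorithm). Affinity was read by AlphaSeq, a pooled yeast mating assay with surface-displayed partners. The frequency of each diploid, read from paired DNA barcodes, reflects how well the two displayed proteins bind. Read counts were normalised to the haploid input and turned into Kd by a linear fit to BCL2-family pairs of known affinity, for each replicate. The assay was run in six technical replicates.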

Variants are written as CDR1, CDR2 and CDR3 of the heavy chain (limits as in the source). Parent: GFTLNSYGIS, VIYSDGRRTFYGDSVK, GRAAGTFDS.
Values are log10 of the apparent Kd in nM; lower means stronger binding.
An entry "n.d." has no value in the source: the pair was not observed among the diploids in that replicate. This suggests poor binding but is not conclusive.
The range of this assay differs from that of the first round, and the authors advise against merging the two.

| CDR-H1 | CDR-H2 | CDR-H3 | replicates, log10 nM | empty controls |
|---|---|---|---|---|
| GFDLNEYGIS | VIYADGKRTAYADSVK | GNIAGTFDV | 0.71 / 0.14 / 0.41 / 0.35 / 0.23 / 0.62 | 0 of 18 |
| GFDLNEYGIS | VIYADGLRTAYADSVK | GNNAGTFDV | n.d. / n.d. / n.d. / n.d. / n.d. / n.d. | 0 of 18 |
| GFDLNEYGIS | VIYADGMRTAYSDSVK | GNTAGTFDT | -1.20 / -0.89 / -0.20 / -1.67 / -0.71 / -0.78 | 0 of 18 |
| GFDLNEYGIS | VIYADGRRTAYTDSVK | GEVAGTFDQ | -0.10 / -0.01 / -0.03 / -0.25 / -0.09 / -0.10 | 1 of 18 (1.65) |
| GFDLNEYGIS | VIYADGVRTAYADDVK | GNEAGTFDL | -0.50 / 0.25 / -0.37 / -0.48 / -0.64 / -0.37 | 1 of 18 (3.20) |
| GFDLSEYGIS | VIYADGMRTAYADSVK | GQNAGTFDV | -0.86 / -0.74 / n.d. / -1.23 / -0.07 / -0.19 | 0 of 18 |
| GFDLDEYGIS | VIYADGMRTAYADSVK | GETAGTFDQ | 0.05 / -0.94 / -1.34 / 0.06 / -0.91 / -0.38 | 0 of 18 |
| GFDLDEYGIS | VIYADGRRTAYADNVK | GETAGTFDV | -0.82 / -0.10 / -0.89 / -0.77 / -0.93 / -0.80 | 0 of 18 |
| GFDLNEYGIS | VIYADGMRTAYSDSVK | GGVAGTFDV | n.d. / 2.45 / 2.78 / 1.31 / 1.31 / 1.32 | 0 of 18 |
| GFDLDEYGIS | VIYADGMRTAYADNVK | GNTAGTFDV | -0.67 / -0.68 / -0.61 / -0.83 / -0.83 / -0.43 | 0 of 18 |
| GFDLDEYGIS | VIYADGMRTAYADSVK | GETAGTFDV | -0.03 / -0.29 / -0.39 / -0.47 / -0.38 / -0.28 | 1 of 18 (3.59) |
| GFDLDEYGIS | VIYADGMRTYYADSVK | GNVAGTFDM | 0.03 / -0.27 / -0.09 / -0.42 / -0.24 / -0.07 | 0 of 18 |
| GFDLNEYGIS | VIYADGMRKAYADDVK | GENAGTFDL | -0.28 / -1.28 / -0.94 / -1.41 / -1.02 / -0.20 | 0 of 18 |
| GFDLNEYGIS | VIYADGVRTFYADSVK | GNNAGTFDV | -0.13 / -0.18 / -0.27 / -0.62 / -0.30 / -0.17 | 1 of 18 (3.77) |
| GFDLNEYGIS | VIYADGKRTAYVDSVK | GENAGTFDT | n.d. / 0.44 / n.d. / n.d. / 1.71 / n.d. | 0 of 18 |
| GFDLNEYGIS | VIYADGMRKAYADNVK | GNVAGTFDL | -0.93 / -0.33 / -1.04 / -0.38 / -1.09 / -1.09 | 0 of 18 |
| GFDLNEYGIS | VIYADGRRTAYSDSVK | GNTAGTFDQ | -0.44 / -0.24 / -0.60 / -0.69 / -0.25 / -0.41 | 0 of 18 |
| GFDLNEYGIS | VIYADGMRTVYSDSVK | GEVAGTFDV | -0.45 / -0.54 / -0.40 / -0.67 / -0.39 / -0.38 | 1 of 18 (2.16) |
| GFDLNEYGIS | VIYADGMRTAYADSVK | GSVAGTFDI | -0.49 / -0.60 / -0.17 / -0.36 / -0.87 / -0.35 | 0 of 18 |
| GFDLNEYGIS | VIYADGMRTFYADSVK | GEVAGTFDV | 0.30 / 0.09 / -0.36 / 0.15 / -0.08 / 0.30 | 0 of 18 |
| GFDLNEYGIS | VIYADGMRKAYADDVK | GTNAGTFDV | -0.16 / -0.15 / -0.29 / -0.58 / -0.53 / 0.25 | 0 of 18 |
| GFDLNEYGIS | VIYADGMRTAYVDSVK | GQNAGTFDV | n.d. / n.d. / n.d. / n.d. / 1.32 / 1.22 | 0 of 18 |
| GFDLDEYGIS | VIYADGVRTAYADSVK | GENAGTFDM | 0.13 / -0.45 / -0.13 / -0.68 / -0.68 / -0.52 | 0 of 18 |
| GFDLNEYGIS | VIYADGQRTYYADSVK | GNNAGTFDI | -0.23 / -0.50 / -0.14 / -0.52 / -0.30 / -0.34 | 0 of 18 |
| GFDLNEYGIS | VIYADGKRTSYADSVK | GENAGTFDV | 0.17 / 0.59 / 0.06 / -0.10 / -0.37 / 0.27 | 0 of 18 |
| GFDLNEYGIS | VIYADGKRTVYADSVK | GNVAGTFDT | -0.44 / -0.55 / -0.51 / -0.68 / -0.46 / -0.47 | 0 of 18 |
| GFDLNEYGIS | VIYADGKRTAYVDSVK | GENAGTFDM | -0.57 / -0.81 / -0.89 / -0.94 / -0.71 / -0.08 | 0 of 18 |
| GFNLDEYGIS | VIYADGMRTAYADSVK | GEVAGTFDQ | -0.77 / -0.86 / -0.99 / -0.75 / -0.86 / 0.06 | 0 of 18 |
| GFDLNEYGIS | VIYADGMRTAYSDSVK | GSNAGTFDV | n.d. / 1.87 / n.d. / n.d. / n.d. / 0.59 | 0 of 18 |
| GFDLDEYGIS | VIYADGKRTAYADSVK | GKNAGTFDV | -0.63 / -0.60 / -0.06 / -0.24 / -0.11 / -0.10 | 0 of 18 |
| GFDLNEYGIS | VIYADGMRTAYIDNVK | GNVAGTFDV | -0.14 / -0.21 / -0.27 / -0.29 / -0.30 / -0.03 | 2 of 18 (3.68) |
| GFDLNEYGIS | VIYADGKRSYYADSVK | GNVAGTFDV | -0.48 / 1.13 / 0.23 / -0.20 / 0.19 / 0.31 | 0 of 18 |
| GFDLDEYGIS | VIYADGKRTAYADSVK | GGNAGTFDI | -0.07 / -0.39 / -0.61 / -0.37 / -0.01 / -0.26 | 1 of 18 (2.94) |
| GFDLNEYGIS | VIYADGMRTAYADDVK | GENAGTFVL | 1.44 / 1.29 / 0.79 / 1.47 / 1.56 / 1.36 | 0 of 18 |
| GFDLDEYGIS | VIYADGRRTAYADSVK | GNVAGTFDT | 0.19 / 0.29 / -0.16 / -0.29 / 0.11 / 0.50 | 1 of 18 (1.62) |
| GFDLDEYGIS | VIYADGMRTAYADNVK | GETAGTFDV | -0.22 / -0.25 / -0.49 / -0.50 / -0.09 / -0.16 | 0 of 18 |
| GFDLDEYGIS | VIYADGQRTFYADSVK | GNVAGTFDT | -0.36 / -0.35 / -0.33 / -0.73 / -0.69 / -0.28 | 0 of 18 |
| GFDLDEYGIS | VIYADGMRTAYSDSVK | GEVAGTFDL | -0.09 / -0.05 / -0.32 / -0.66 / -0.23 / -0.31 | 1 of 18 (1.42) |
| GFDLNEYGIS | VIYADGRRTAYADDVK | GNTAGTFDI | 2.41 / 1.20 / n.d. / 2.11 / 3.16 / 1.72 | 0 of 18 |
| GFDLNEYGIS | VIYADGVRTAYADNVK | GQVAGTFDI | -0.33 / -0.23 / -0.60 / -0.67 / -0.63 / -0.21 | 0 of 18 |
| GFDLEEYGIS | VIYADGMRTAYADSVK | GNNAGTFDI | -0.04 / -0.12 / -0.26 / -0.31 / -0.22 / -0.09 | 1 of 18 (1.83) |
| GFDLNEYGIS | VIYADGLRTFYADSVK | GNVAGTFDV | -0.89 / -0.91 / -0.79 / -0.90 / -1.05 / -0.52 | 0 of 18 |
| GFDLDEYGIS | VIYADGMRTSYADDVK | GENAGTFDV | 0.03 / -0.24 / 0.07 / -0.01 / 0.29 / 0.24 | 0 of 18 |
| GFDLNEYGIS | VIYADGMRTAYSDKVK | GEVAGTFDV | -0.24 / -0.50 / -0.54 / -0.44 / -0.77 / -0.58 | 1 of 18 (1.16) |
| GFDLDEYGIS | VIYADGMRTAYADSVK | GDNAGTFDV | -0.65 / -0.93 / -0.76 / 0.15 / -0.67 / -0.50 | 0 of 18 |

Excerpt, the first 4 entries:

{"CDR-H1": "GFDLNEYGIS", "CDR-H2": "VIYADGKRTAYADSVK", "CDR-H3": "GNIAGTFDV", "replicates, log10 nM": "0.71 / 0.14 / 0.41 / 0.35 / 0.23 / 0.62", "empty controls": "0 of 18"}
{"CDR-H1": "GFDLNEYGIS", "CDR-H2": "VIYADGLRTAYADSVK", "CDR-H3": "GNNAGTFDV", "replicates, log10 nM": "n.d. / n.d. / n.d. / n.d. / n.d. / n.d.", "empty controls": "0 of 18"}
{"CDR-H1": "GFDLNEYGIS", "CDR-H2": "VIYADGMRTAYSDSVK", "CDR-H3": "GNTAGTFDT", "replicates, log10 nM": "-1.20 / -0.89 / -0.20 / -1.67 / -0.71 / -0.78", "empty controls": "0 of 18"}
{"CDR-H1": "GFDLNEYGIS", "CDR-H2": "VIYADGRRTAYTDSVK", "CDR-H3": "GEVAGTFDQ", "replicates, log10 nM": "-0.10 / -0.01 / -0.03 / -0.25 / -0.09 / -0.10", "empty controls": "1 of 18 (1.65)"}

The parent sequence was in this pool as ten entries: three were never detected, three once, and four in most replicates, with averages from 0.34 to 2.37.
Nonspecific signal, from three strains lacking the peptide, appeared in 1% of pairings of all heavy chain designs, centred on 2.08 (5% of these signals below 0.84); values are not corrected for it. Also given: how often the same scFv was detected with the empty control strains, with their mean in brackets.
The authors' rule: three or more of the six replicates give a measured affinity, fewer mean a poor binder.